Broadly, the Ki is a measure of affinity in units of concentration, obtained from inhibition or displacement.

The chains behind the UniProt entries cited, without tags or fusion partners.
UniProt P30542, whole entry: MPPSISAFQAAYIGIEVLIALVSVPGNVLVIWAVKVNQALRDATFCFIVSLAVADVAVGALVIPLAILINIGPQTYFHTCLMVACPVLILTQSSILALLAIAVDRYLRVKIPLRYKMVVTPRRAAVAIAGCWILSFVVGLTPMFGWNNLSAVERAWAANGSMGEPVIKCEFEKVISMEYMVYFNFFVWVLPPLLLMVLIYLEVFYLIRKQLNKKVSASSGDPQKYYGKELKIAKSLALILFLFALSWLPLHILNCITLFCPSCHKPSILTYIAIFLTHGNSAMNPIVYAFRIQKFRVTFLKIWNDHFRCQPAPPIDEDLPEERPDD
UniProt P0DMS8, whole entry: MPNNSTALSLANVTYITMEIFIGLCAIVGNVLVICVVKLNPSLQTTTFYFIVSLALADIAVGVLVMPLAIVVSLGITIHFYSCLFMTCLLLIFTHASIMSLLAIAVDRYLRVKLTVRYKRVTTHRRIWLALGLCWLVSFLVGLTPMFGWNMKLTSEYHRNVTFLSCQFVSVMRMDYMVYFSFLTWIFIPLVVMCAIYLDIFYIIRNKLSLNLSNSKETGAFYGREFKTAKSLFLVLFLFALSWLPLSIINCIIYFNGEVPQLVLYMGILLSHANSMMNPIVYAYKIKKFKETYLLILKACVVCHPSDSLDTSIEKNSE

In one test the target is human A1AR (Homo sapiens (Human), UniProt P30542). Description: Binding assay to the human A1AR ([3H]R-PIA). As to conditions: [3H]R-PIA (2.0 nM), CHO cells; Table 2; read-out: Ki(hA1AR). How it is done: CHO (Chinese hamster ovary) cells expressing the recombinant human ARs (HEK-293 cells were used for the human A2AAR) were cultured in DMEM and F12 (1:1) supplemented with 10% fetal bovine serum, 100 units/ml penicillin, […] streptomycin and 2 μmol/ml glutamine. Cells were harvested by trypsinization. After homogenization and suspension, cells were centrifuged at 500 g for 10 min, and the pellet was re-suspended in 50 mM Tris.HCl buffer (pH 7.4) containing 10 mM MgCl2. The suspension was homogenized with an electric homogenizer for 10 sec, and was then re-centrifuged at 20,000 g for 20 min at 4° C. The resultant pellets were resuspended in buffer in the presence of 3 Units/mL adenosine deaminase, and the suspension was stored at −80° C. until the binding experiments. The protein concentration was measured using the Bradford assay.
For binding to the human A1AR, [^3H]R-PIA (2 nM) was incubated with membranes (40 μg/tube) from CHO cells stably expressing the human A1AR at 25° C. for 60 min in 50 mM Tris.HCl buffer (pH 7.4; MgCl2, 10 mM) in a total assay volume of 200 μL. Nonspecific binding was determined using 10 μM of N^6-cyclopentyladenosine. For human A2A AR binding, membranes (20 μg/tube) from HEK-293 cells stably expressing the human A2A AR were incubated with 15 nM [^3H]CGS21680 at 25° C. for 60 min in 200 μL of 50 mM Tris.HCl, pH 7.4, containing 10 mM MgCl2. […]

The target in the next test is human A3ARs (Homo sapiens (Human), UniProt P0DMS8). The experiment in a line: Dissociation kinetics of [125I]I-AB-MECA from human A3ARs. As to conditions: 0.5 h, % decrease of dissociation at 30 min, residual binding of [125I]AB-MECA after 30 min = 100%, Table 2, read-out: hA3AR Ag. Dissociation at 10 μM. How it is done:
The dissociation of [^125I]I-AB-MECA was measured as follows. Membranes (20 μg) were preincubated at 25° C. with 0.5 nM [^125I]I-AB-MECA, in a total volume of 100 μl of Tris-HCl buffer (50 mM, pH 8.0) containing 10 mM MgCl2, and 1 mM EDTA for 60 min. The dissociation was then initiated by the addition of 3 μM Cl-IB-MECA with or without allosteric modulators. The time course of dissociation of total binding was measured by rapid filtration at appropriate time intervals. Nonspecific binding was measured after 60-min incubation in the presence of 3 μM Cl-IB-MECA. Further assay was as described above.

`Cc1ccc(Nc2nc3ccccc3c3[nH]c(C4CCCC4)nc23)cc1` [Compound 31, N-(4-Methyl-phenyl)-2-cyclopentyl-1H-imidazo[4,5-c]quinolin-4-amine]: the Ki at human A1AR was 3.85 ± 0.5 µM.

`Clc1ccc(Nc2nc3ccccc3c3[nH]c(C4CCC4)nc23)cc1Cl` [Compound 44, N-(3,4-Dichloro-phenyl)-2-cyclobutyl-1H-imidazo[4,5-c]quinolin-4-amine]: the activity at 10 µM at human A3ARs was 116 ± 3%.
